Measurements published in patent US20050192308A1 (priority 2001, published 2005).

Sequences of proteins named here, by UniProt entry; tags and fusion partners are left off.
UniProt P41146, whole entry: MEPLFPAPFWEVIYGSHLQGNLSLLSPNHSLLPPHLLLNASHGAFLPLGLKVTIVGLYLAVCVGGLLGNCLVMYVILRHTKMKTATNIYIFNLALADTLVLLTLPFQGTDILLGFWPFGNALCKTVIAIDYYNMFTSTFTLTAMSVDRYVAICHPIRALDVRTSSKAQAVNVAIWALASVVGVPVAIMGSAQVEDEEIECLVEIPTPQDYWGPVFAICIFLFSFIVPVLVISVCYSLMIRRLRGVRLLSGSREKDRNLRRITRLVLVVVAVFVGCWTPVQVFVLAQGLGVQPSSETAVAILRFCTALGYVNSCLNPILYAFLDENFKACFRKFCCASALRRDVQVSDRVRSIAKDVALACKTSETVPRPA
UniProt P41145, whole entry: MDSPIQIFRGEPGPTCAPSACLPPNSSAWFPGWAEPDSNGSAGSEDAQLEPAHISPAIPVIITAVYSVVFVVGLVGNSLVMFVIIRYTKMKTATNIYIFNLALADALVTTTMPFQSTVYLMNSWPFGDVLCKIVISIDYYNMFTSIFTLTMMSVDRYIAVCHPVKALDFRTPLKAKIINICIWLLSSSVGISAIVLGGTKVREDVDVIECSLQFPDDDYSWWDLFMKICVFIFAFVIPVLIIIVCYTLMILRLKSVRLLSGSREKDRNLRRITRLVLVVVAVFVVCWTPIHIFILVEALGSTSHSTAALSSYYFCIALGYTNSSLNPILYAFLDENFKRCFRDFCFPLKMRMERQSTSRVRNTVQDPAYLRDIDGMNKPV
UniProt P41143, whole entry: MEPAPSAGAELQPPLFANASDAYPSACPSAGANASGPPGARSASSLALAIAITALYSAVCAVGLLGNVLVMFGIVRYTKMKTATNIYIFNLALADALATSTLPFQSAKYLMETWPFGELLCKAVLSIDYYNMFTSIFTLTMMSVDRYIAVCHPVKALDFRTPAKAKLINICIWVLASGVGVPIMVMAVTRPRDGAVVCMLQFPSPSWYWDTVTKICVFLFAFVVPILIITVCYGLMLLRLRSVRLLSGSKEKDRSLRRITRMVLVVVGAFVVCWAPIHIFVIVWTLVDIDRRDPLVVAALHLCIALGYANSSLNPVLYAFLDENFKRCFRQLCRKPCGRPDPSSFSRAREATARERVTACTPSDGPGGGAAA

Assays:
ORL-1 receptor [1] = biological target: T1, ORL-1 receptor (Homo sapiens, UniProt P41146); assay: ORL-1 binding assay ([3H]-nociceptin), Example 2; conditions: for Ki: read-out: Ki values ORL-1, [3H]-nociceptin, human recombinant cell line
Kappa opioid receptor [2] = biological target: T2, Kappa opioid receptor (Homo sapiens, UniProt P41145); assay: Kappa binding assay ([3H]-diprenorphine), Example 2; conditions: for Ki: read-out: Ki values Kappa, [3H]-diprenorphine, human recombinant cell line
Delta2 opioid receptor = Delta2 opioid receptor (Homo sapiens, UniProt P41143); assay: Delta2 binding assay ([3H]-naltrindole), Example 2; conditions: for Ki: read-out: Ki values Delta, [3H]-naltrindole, human recombinant cell line
ORL-1 receptor [3] = biological target: T1, ORL-1 receptor; assay: [35S]GTPγS binding functional assay, ORL-1; conditions: relative to Nociceptin control
Kappa opioid receptor [4] = biological target: T2, Kappa opioid receptor; assay: [35S]GTPγS binding functional assay, kappa
Delta opioid receptor = Delta opioid receptor (Homo sapiens, UniProt P41143); assay: [35S]GTPγS binding functional assay, delta; conditions: for Functional GTPgS Delta Efficacy % Met-Enk: relative to Met-Enkephalin control

SMILES | Ki (ORL-1 receptor [1]) | Ki (Kappa opioid receptor [2]) | Ki (Delta2 opioid receptor) | activity at orphanin receptor less than buprenorphine (ORL-1 receptor [1]; binding, Table 1 data) | Functional GTPgS ORL-1 Efficacy % Noci (ORL-1 receptor [3]) | functional character at the kappa receptor (Kappa opioid receptor [4]) | EC50 (Kappa opioid receptor [4]; read-out: Functional GTPgS Activity Kappa EC50, mean±S.E.M.) | Functional GTPgS Kappa Efficacy % U-69,593 (Kappa opioid receptor [4]; relative to U-69,593 control) | activity at kappa receptor less than buprenorphine (Kappa opioid receptor [2]; binding, Table 1 data) | activity at delta receptor less than buprenorphine (Delta2 opioid receptor; binding, Table 1 data) | functional character at the delta receptor (Delta opioid receptor) | EC50 (Delta opioid receptor; read-out: Functional GTPgS Activity Delta EC50, mean±S.E.M.) | Functional GTPgS Delta Efficacy % Met-Enk (Delta opioid receptor) | Functional GTPgS Delta Efficacy % Met-Enk (Delta opioid receptor; listed as N-(3′-Butenyl) norbuprenorphine) | Functional GTPgS Delta Efficacy % Met-Enk (Delta opioid receptor; listed as butenyl derivative)
CO[C@]12CC[C@@]3(C[C@@H]1[C@](C)(O)C(C)(C)C)[C@H]1Cc4ccc(O)c5c4[C@@]3(CCN1)[C@H]2O5 | 1.19 µM | 0.031 µM | 0.856 µM | – | – | – | – | – | – | – | – | – | – | – | –
C=CCCN1CCC23c4c5ccc(O)c4O[C@H]2[C@@]2(OC)CCC3(C[C@@H]2[C@](C)(O)C(C)(C)C)[C@H]1C5 | 2.8 µM | 0.0154 µM | 0.113 µM | 20 fold | 19 ± 2% | partial agonist | 0.019 µM | 16 ± 1% | 100 fold | 60 fold | partial agonist | 0.032 µM | 47 ± 0% | 47 ± 0% | 47%
